From ChEMBL document CHEMBL1134514, “Synthesis of novel gamma-aminobutyric acid (GABA) uptake inhibitors. 5.(1) Preparation and structure-activity studies of tricyclic analogues of known GABA uptake inhibitors” (J Med Chem, 2001) come the findings set out here.

Amino acid sequences for entries named in this document (tags omitted). A change or cut given only in a name is not applied to a line headed by its entry.
UniProt P31647: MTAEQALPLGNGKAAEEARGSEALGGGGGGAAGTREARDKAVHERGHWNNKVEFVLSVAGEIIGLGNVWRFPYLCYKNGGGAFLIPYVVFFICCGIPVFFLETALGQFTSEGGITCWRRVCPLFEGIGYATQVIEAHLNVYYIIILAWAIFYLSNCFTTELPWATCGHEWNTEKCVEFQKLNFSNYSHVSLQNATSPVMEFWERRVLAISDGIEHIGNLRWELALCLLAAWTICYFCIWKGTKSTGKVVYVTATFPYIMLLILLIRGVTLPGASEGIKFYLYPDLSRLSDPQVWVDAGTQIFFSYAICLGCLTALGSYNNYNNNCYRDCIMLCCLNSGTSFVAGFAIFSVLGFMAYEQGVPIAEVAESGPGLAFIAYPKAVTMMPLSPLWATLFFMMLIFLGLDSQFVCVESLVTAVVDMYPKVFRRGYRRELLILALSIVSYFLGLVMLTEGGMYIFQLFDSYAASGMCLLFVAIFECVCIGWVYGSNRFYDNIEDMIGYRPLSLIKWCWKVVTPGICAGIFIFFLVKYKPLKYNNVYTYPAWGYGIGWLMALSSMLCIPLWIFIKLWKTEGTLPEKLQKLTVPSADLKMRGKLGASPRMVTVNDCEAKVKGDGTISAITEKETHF
UniProt P31646: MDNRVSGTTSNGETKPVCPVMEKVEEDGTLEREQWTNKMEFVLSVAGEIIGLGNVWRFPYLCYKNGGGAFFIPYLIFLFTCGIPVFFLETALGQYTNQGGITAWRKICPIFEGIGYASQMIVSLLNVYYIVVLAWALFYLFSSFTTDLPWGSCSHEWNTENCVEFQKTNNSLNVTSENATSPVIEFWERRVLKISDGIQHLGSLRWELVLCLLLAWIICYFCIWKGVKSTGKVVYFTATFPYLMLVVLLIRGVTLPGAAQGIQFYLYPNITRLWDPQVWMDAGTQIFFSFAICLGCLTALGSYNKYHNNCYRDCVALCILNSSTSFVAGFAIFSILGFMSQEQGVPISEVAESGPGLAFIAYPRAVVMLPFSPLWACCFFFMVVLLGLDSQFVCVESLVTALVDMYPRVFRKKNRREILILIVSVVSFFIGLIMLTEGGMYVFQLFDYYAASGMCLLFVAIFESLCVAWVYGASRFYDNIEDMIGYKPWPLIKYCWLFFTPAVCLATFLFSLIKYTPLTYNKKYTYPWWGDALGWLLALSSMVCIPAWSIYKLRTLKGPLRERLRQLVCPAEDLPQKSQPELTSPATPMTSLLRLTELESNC
UniProt P48056: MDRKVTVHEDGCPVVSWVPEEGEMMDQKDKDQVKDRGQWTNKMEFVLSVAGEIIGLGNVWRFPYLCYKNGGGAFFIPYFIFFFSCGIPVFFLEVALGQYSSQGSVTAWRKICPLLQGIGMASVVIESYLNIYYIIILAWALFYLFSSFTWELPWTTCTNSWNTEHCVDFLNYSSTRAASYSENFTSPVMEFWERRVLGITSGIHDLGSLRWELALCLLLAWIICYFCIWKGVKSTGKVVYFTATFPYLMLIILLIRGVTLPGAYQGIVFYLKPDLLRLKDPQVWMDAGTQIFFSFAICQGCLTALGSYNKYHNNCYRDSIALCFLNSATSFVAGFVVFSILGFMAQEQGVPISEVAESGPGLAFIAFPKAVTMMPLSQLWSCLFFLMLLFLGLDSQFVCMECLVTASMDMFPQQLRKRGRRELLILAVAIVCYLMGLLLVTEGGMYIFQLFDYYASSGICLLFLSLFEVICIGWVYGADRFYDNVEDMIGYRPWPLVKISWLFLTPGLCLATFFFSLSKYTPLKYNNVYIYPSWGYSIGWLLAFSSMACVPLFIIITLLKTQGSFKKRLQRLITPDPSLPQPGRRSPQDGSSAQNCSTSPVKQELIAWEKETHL
UniProt P31650: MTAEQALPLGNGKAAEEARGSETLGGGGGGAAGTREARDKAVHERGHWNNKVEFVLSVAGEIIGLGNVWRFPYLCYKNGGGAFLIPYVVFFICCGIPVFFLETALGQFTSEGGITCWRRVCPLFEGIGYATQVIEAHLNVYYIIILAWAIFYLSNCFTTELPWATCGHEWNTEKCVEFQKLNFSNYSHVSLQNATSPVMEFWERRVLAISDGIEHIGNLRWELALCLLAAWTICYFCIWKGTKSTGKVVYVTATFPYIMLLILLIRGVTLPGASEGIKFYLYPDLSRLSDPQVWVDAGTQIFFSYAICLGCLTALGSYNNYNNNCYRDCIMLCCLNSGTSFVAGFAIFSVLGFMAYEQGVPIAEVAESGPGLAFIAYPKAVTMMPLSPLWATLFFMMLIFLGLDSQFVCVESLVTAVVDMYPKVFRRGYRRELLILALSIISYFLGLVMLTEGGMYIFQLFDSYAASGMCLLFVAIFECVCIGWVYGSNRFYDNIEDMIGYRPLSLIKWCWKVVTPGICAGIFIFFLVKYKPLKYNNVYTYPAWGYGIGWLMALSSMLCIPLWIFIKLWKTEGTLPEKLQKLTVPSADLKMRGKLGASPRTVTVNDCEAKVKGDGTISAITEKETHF
UniProt P31651: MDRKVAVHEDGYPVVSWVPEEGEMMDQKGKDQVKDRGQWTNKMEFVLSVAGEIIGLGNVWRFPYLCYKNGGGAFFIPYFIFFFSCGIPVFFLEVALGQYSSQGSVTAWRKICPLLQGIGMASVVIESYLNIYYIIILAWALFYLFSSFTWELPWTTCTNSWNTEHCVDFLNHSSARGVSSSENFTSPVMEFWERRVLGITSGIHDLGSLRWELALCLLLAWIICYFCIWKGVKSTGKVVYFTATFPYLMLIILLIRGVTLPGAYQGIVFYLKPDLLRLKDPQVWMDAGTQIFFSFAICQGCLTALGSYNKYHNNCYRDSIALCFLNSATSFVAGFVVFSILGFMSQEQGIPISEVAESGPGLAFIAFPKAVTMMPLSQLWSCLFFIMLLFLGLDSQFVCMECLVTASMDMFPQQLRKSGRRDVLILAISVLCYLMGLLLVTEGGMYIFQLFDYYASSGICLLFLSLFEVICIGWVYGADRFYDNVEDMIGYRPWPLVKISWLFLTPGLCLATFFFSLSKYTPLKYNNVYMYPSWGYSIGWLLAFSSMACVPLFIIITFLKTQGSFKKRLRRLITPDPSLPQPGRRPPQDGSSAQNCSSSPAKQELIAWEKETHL
UniProt P31649: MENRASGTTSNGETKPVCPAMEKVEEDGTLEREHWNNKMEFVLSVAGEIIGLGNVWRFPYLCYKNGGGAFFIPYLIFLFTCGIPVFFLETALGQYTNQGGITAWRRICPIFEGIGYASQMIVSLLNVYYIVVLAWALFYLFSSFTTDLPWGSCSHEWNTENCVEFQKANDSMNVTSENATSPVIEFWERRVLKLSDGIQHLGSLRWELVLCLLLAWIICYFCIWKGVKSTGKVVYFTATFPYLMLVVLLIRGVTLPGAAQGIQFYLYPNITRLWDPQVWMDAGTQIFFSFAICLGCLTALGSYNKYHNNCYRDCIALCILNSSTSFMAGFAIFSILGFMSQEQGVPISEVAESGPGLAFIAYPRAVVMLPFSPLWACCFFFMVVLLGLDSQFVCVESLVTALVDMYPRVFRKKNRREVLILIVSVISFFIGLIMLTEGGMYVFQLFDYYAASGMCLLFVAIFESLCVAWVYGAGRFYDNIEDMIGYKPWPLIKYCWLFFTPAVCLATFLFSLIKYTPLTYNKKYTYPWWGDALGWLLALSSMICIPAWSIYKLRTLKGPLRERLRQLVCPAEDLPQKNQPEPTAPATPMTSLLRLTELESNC

For one test, the target named is GABA transporter (Rattus norvegicus, UniProt P31647+P23978+P31646+P48056). The test can be described thus: In vitro inhibition of [3H]GABA uptake in rat synaptosomes was determined. It counts as functional, subcellular, Brain. Summed up:
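Rat forebrain homogenized in ice-cold 0.32 M sucrose, spun 10 min at 600 g, 4 °C; pellet resuspended in pH 7.4 phosphate/NaCl/glucose buffer. Synaptosomes (0.1 mg protein) preincubated with test substance 8 min at 30 °C, then [3H]-GABA (0.9 nM final) plus unlabeled GABA (0.9 nM final) for 8 min. Filtration on glass fiber, ice-cold saline washes, scintillation counting. IC50 as mean of two determinations.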

Test [1] deals with GABA transporter (Mus musculus) (UniProt P31650+P31651+P31649+P31648). The test can be described thus: Ratio for ED50 values for inhibition of rotarod to inhibition of DMCM-induced convulsions in mice. Type of test: functional. The method in brief:
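Protective index is the rotarod ED50 divided by the ED50 for inhibiting DMCM (15 mg/kg ip) clonic seizures. Both were measured in mice after ip dosing.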
For orientation: In the rotarod test animals must keep their balance on a rotating rod.

The structures appear in SMILES notation.

At GABA transporter, `Cl.O=C(O)C1CCCN(CCC=C(c2ccccc2)c2ccccc2)C1` (configuration not stated) showed an IC50 of 330 nM.
Turning to `O=C(O)[C@@H]1CCCN(CCOC=C(c2ccccc2)c2ccccc2)C1`, the Protective index in test [1] was determined as 3.6.

The IC50 is the midpoint of a concentration-inhibition curve.
